From patent US20120196899A1, “METHODS AND PRODUCTS FOR TREATING INFLAMMATION” (Rock Creek Pharmaceuticals, Inc., priority 2010, published 2012)
Like-named read-outs stand apart in the source and are kept apart here.

The chains behind the UniProt entries cited, without tags or fusion partners. Residues count along the entry.
UniProt P17787, 26-502: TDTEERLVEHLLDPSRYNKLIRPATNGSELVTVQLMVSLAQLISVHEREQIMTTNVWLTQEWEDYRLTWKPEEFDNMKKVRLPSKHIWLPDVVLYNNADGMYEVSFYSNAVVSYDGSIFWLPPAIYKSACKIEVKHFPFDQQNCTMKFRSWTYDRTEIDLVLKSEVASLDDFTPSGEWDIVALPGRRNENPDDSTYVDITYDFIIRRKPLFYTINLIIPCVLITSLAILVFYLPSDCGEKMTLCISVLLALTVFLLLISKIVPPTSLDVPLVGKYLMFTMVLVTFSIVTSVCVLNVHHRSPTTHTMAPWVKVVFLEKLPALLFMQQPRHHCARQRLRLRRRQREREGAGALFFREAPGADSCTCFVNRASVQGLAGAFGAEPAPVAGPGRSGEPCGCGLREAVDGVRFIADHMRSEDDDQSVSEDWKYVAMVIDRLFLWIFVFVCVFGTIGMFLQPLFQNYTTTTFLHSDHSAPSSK
UniProt P43681, 29-627: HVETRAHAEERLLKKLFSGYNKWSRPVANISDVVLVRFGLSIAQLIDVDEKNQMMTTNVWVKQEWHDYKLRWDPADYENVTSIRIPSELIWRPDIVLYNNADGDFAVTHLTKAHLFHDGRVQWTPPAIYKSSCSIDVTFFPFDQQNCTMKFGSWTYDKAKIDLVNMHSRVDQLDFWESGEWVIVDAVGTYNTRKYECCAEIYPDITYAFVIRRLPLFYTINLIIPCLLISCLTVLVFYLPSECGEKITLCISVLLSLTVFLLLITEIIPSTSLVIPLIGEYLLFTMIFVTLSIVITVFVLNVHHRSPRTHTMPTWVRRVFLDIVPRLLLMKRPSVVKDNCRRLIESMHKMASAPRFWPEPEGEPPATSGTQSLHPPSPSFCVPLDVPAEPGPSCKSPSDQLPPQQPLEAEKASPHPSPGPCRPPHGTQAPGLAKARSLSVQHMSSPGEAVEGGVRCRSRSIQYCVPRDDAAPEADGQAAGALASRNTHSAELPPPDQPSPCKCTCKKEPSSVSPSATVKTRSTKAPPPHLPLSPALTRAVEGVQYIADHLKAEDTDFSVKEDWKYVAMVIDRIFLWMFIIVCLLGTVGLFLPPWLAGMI
UniProt P36544, 23-502: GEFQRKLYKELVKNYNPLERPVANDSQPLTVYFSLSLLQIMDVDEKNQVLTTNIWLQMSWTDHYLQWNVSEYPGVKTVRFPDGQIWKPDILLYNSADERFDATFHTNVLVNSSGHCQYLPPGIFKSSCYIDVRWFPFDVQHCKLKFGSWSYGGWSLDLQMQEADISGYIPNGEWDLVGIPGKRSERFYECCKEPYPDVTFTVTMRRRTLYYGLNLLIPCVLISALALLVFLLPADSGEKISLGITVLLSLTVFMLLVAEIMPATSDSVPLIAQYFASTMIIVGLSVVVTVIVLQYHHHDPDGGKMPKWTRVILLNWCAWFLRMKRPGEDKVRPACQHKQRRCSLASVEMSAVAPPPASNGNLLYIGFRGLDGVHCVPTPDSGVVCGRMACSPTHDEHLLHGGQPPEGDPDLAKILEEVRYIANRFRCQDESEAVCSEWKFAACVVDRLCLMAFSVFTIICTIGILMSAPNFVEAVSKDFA
UniProt P30926, 22-498: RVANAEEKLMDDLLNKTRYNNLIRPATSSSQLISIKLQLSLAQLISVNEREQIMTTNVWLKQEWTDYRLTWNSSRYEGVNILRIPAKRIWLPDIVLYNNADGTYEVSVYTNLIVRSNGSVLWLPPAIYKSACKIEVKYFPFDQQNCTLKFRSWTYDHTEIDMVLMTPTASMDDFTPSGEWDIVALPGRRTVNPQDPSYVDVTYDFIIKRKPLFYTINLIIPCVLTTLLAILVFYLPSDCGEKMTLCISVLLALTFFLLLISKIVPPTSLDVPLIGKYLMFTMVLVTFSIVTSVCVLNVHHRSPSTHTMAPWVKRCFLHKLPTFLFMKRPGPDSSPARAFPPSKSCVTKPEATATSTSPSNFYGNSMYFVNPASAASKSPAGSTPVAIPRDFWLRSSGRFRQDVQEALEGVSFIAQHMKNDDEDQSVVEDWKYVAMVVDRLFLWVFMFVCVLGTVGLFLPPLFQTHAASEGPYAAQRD
UniProt P32297, 32-505: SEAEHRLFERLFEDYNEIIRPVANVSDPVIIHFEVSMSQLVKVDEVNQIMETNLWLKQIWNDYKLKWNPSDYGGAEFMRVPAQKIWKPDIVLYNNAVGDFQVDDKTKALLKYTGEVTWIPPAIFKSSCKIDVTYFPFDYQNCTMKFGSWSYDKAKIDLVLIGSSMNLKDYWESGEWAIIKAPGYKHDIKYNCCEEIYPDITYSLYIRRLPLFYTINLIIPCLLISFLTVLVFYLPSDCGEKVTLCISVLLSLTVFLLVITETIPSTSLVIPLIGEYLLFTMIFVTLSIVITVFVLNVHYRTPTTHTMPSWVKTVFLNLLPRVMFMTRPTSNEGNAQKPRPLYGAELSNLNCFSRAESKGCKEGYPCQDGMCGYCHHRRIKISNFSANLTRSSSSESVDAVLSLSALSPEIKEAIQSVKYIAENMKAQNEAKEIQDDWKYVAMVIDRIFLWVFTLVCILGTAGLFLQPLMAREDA

Columns and labels:
[1] = target: T1, nAChR α4/β2 (Homo sapiens, UniProt P17787+P43681); test: nAChR α4/β2 channel agonist assay (FLIPR membrane potential); assay type: cell-based; details: 30 μM Ach = 100%, HBPS = 0%
T1 construct: host or cells: HEK293 cells, transient transfection

[2] = target: T2, nAChR α7 (Homo sapiens, UniProt P36544); assay type: cell-based; details: with 300 μM Ach + 10 μM PNU-120596, 10 μM MLA = full inhibition
T2 construct: host or cells: CHO cells

[3] = target: T2, nAChR α7; test: nAChR α7 channel agonist assay (FLIPR, with PNU-120596); assay type: cell-based; details: in presence of PNU-120596, 30 μM Ach + 10 μM PNU-120596 = 100%, HBPS = 0%
Procedure: Therefore, the assay of agonist activity for either Ach or for the test articles was conducted in the presence of the positive allosteric modulator.

[4] = target: T2, nAChR α7; test: nAChR α7 positive allosteric modulator assay (FLIPR); assay type: cell-based; details: with 30 μM Ach (= 0%), 30 μM Ach + 10 μM PNU-120596 = 100%
Description: Neither test article potentiated the activity of the nAChR α7 receptor.

[5] = target: nAChR α3/β4 (Homo sapiens, UniProt P30926+P32297); test: nAChR α3/β4 channel agonist assay (FLIPR, Fluo-8 calcium); details: 30 μM Ach = 100%, HBPS = 0%
[6] = Coagulation parameters (aPTT, PT), day 15; assay type: in vivo, Sprague-Dawley rats; details: female; 0.75 mg/kg; group mean
Description: On day 15, urine was collected on all surviving animals for urinalysis. The animals were euthanized and bled via cardiac puncture. Blood was collected for hematology, clinical chemistry, and coagulation analysis. Tissues were collected, weighed, and stored in 10% neutral-buffered formalin for possible future analysis.
Individual values for the coagulation parameters activated partial thromboplastin (aPTT) and prothrombin times (PT) for each animal are listed in Table 34 (normal ranges, Table 30). These are summarized in terms of descriptive statistics in Table 25.

Question: With CN1CCC[C@H]1c1cccnc1 (single isomer, unassigned) [Nicotine (—) isomer] as the molecule, how does the “Normalized % Activation” value ([1]; test conc 0.3 μM) read?
Answer: 16.27%

Question: What about the “Normalized % Activation” value ([1]; test conc 1 μM) of the same molecule?
Answer: 34.05%

Question: And the “Normalized % Activation” value ([1]; test conc 3 μM)?
Answer: 61.88%

Question: What about the “Normalized % Activation” value ([1]; test conc 10 μM) of the same molecule?
Answer: 74.31%

Question: What about the “Normalized % Activation” value ([1]; test conc 30 μM) of the same molecule?
Answer: 75.53%

Question: What about the “Normalized % Activation” value ([1]; test conc 100 μM) of the same molecule?
Answer: 71.02%

Question: And the “Normalized % Activation” value ([1]; test conc 300 μM)?
Answer: 58.23%

Question: And the “Normalized % Activation” value ([1]; test conc 1000 μM)?
Answer: 57.05%

Question: What about the “Normalized % Inhibition” value ([2]; test conc 0.3 μM) of the same molecule?
Answer: 2.78%

Question: And the “Normalized % Inhibition” value ([2]; test conc 1 μM)?
Answer: 11.83%

Question: And the “Normalized % Inhibition” value ([2]; test conc 3 μM)?
Answer: 41.24%

Question: What about the “Normalized % Inhibition” value ([2]; test conc 10 μM) of the same molecule?
Answer: 32.54%

Question: What about the “Normalized % Inhibition” value ([2]; test conc 30 μM) of the same molecule?
Answer: 39.20%

Question: What about the “Normalized % Inhibition” value ([2]; test conc 100 μM) of the same molecule?
Answer: 18.65%

Question: What about the “Normalized % Inhibition” value ([2]; test conc 300 μM) of the same molecule?
Answer: 14.10%

Question: What about the “Normalized % Inhibition” value ([2]; test conc 1000 μM) of the same molecule?
Answer: −37.01%

Question: And the “Normalized % Activation” value ([3]; test conc 0.3 μM)?
Answer: −1.03%

Question: What about the “Normalized % Activation” value ([3]; test conc 1 μM) of the same molecule?
Answer: 0.15%

Question: What about the “Normalized % Activation” value ([3]; test conc 3 μM) of the same molecule?
Answer: 0.72%

Question: What about the “Normalized % Activation” value ([3]; test conc 10 μM) of the same molecule?
Answer: 2.44%

Question: And the “Normalized % Activation” value ([3]; test conc 30 μM)?
Answer: 5.19%

Question: And the “Normalized % Activation” value ([3]; test conc 100 μM)?
Answer: 11.60%

Question: And the “Normalized % Activation” value ([3]; test conc 300 μM)?
Answer: 27.98%

Question: What about the “Normalized % Activation” value ([3]; test conc 1000 μM) of the same molecule?
Answer: 48.47%

Question: And the “Normalized % Potentiation” value ([4]; test conc 0.3 μM)?
Answer: −0.95%

Question: And the “Normalized % Potentiation” value ([4]; test conc 1 μM)?
Answer: −1.03%

Question: And the “Normalized % Potentiation” value ([4]; test conc 3 μM)?
Answer: −0.81%

Question: What about the “Normalized % Potentiation” value ([4]; test conc 10 μM) of the same molecule?
Answer: −0.61%

Question: And the “Normalized % Potentiation” value ([4]; test conc 30 μM)?
Answer: −0.47%

Question: What about the “Normalized % Potentiation” value ([4]; test conc 100 μM) of the same molecule?
Answer: −0.46%

Question: What about the “Normalized % Potentiation” value ([4]; test conc 300 μM) of the same molecule?
Answer: −0.34%

Question: And the “Normalized % Potentiation” value ([4]; test conc 1000 μM)?
Answer: −0.51%

Question: And the “Normalized % Activation” value ([5]; test conc 0.3 μM)?
Answer: 0.94%

Question: What about the “Normalized % Activation” value ([5]; test conc 1 μM) of the same molecule?
Answer: −1.28%

Question: What about the “Normalized % Activation” value ([5]; test conc 3 μM) of the same molecule?
Answer: 1.11%

Question: What about the “Normalized % Activation” value ([5]; test conc 10 μM) of the same molecule?
Answer: 38.17%

Question: What about the “Normalized % Activation” value ([5]; test conc 30 μM) of the same molecule?
Answer: 122.59%

Question: And the “Normalized % Activation” value ([5]; test conc 100 μM)?
Answer: 201.50%

Question: And the “Normalized % Activation” value ([5]; test conc 300 μM)?
Answer: 264.77%

Question: And the “Normalized % Activation” value ([5]; test conc 1000 μM)?
Answer: 208.23%

Question: Which “P[…]” value [6] does the source give for CN1CCCC1c1cccnc1.O=C(O)C(O)C(O)C(=O)O (single isomer, unassigned; (-)) [Nicotine, (−) Nicotine hydrogen tartrate] here?
Answer: 14.1 s
